The list shows a part of the results, in another mix than the full data. Calls of active or inactive are those of the source.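 How the source made its calls: active means mean ATP rescue above about 67%, or every replicate alone reaching that limit (limit read from the data, passing the limit was not always enough); inconclusive means no clear call, values can overlap the other calls; inactive means mean under the limit and some replicate under it.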
Assay: protection of differentiated C2C12 cells from simvastatin – single point, plate reader, primary screen (AID 602340);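 further: myotubes were challenged with 10 µM simvastatin during compound exposure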
Details: C2C12 myotubes + simvastatin, ATP luminescence, 48 h; at 7.49 µM; hits give high values; scaled: DMSO 0, geranylgeraniol control 100

SMILES | rescue of ATP level
COc1cc(OC)c(C(=O)NCC2(N(C)C)CCCCC2)cc1OC | inactive: -0.303%
CCC(c1nnnn1C(C)(C)C)N1CCC(n2c(=O)[nH]c3ccccc32)CC1 (stereo unspecified) | inactive: 5.71%
O=C(NCC1(N2CCOCC2)CCCCC1)c1cc(F)c(F)cc1Cl | inactive: -10.3%
CCCCn1nnnc1C(c1ccnc2ccccc12)N1CCC(n2c(=O)[nH]c3ccccc32)CC1 (stereo unspecified) | inactive: -1.19%
CCCCn1nnnc1C(c1ccccc1OC(F)(F)F)N1CCC(n2c(=O)[nH]c3ccccc32)CC1 (stereo unspecified) | inactive: 6.56%
COc1ccc(CN(CCCl)CCCl)cc1Cl | inactive: 13.5%
CN(C)c1cccc(C(=O)NCC2(N3CCCCC3)CCCCC2)c1 | inactive: 2.8%
COc1ccc(C(c2nnnn2C2CCCC2)N2CCC(n3c(=O)[nH]c4ccccc43)CC2)cc1 (stereo unspecified) | inactive: 0.718%
Cc1ccc(C(=O)NCC2(N(C)C)CCCCC2)o1 | inactive: -4.73%
CCCOc1ccc(C(=O)NCC2(N(C)C)CCCCC2)cc1OC | inactive: 1.23%
O=C(NCC1(N2CCCCC2)CCCCC1)c1cncc(Br)c1 | inactive: 14.2%
CCN1CCC(Nc2ccc(Cl)cc2)CC1 | inactive: -0.167%
N#CC1(Nc2ccccc2)CCN(CCc2ccccc2)CC1 | inactive: 2.86%
O=c1[nH]c2ccccc2n1C1CCN(C(c2ccccc2OC(F)(F)F)c2nnnn2C2CCCC2)CC1 (stereo unspecified) | inactive: 6.79%
CSc1ccc(C(=O)NCC2(N3CCOCC3)CCCCC2)cc1 | inactive: -2.06%
CC(C)(C)n1nnnc1C(c1ccccc1OC(F)(F)F)N1CCC(n2c(=O)[nH]c3ccccc32)CC1 (stereo unspecified) | inactive: 8.11%
O=C(NCC1(N2CCCCC2)CCCCC1)c1ccc(OC(F)F)cc1 | inactive: 4.14%
O=C(NCC1(N2CCOCC2)CCCCC1)c1cc(=O)[nH]c2ccccc12 | inactive: -15.7%
COc1cc(C(=O)NCC2(N3CCCCC3)CCCCC2)ccc1OC(F)F | inactive: -9.62%
CCCCn1nnnc1C(c1cccc2ccccc12)N1CCC(n2c(=O)[nH]c3ccccc32)CC1 (stereo unspecified) | inactive: -12.2%
CC(C)c1ccc(C(=O)NCC2(N3CCOCC3)CCCCC2)cc1 | inactive: -16.1%
O=C(NCC1(N2CCCCC2)CCCCC1)c1cccc(C(F)(F)F)c1 | inactive: 11%
O=C(NCC1(N2CCCCC2)CCCCC1)c1ccc(F)cc1 | inactive: 23.7%

SMILES | rescue of ATP level
CCCCOc1ccc(C(=O)NCC2(N3CCOCC3)CCCCC2)cc1 | inactive: -3.22%
O=P1(N(CCCl)CCCl)SCCCS1 | inactive: -3.1%
CCCCn1nnnc1C(c1cc2ccccc2o1)N1CCC(n2c(=O)[nH]c3ccccc32)CC1 (stereo unspecified) | inactive: -28.5%
CCOC(=O)N1CCC(Nc2ccc(F)cc2)CC1 | inactive: -4.27%
COc1ccc(NC2CCN(CCc3ccccc3)CC2)c(OC)c1 | inactive: -12.2%
CC(C)(C)n1nnnc1C(c1ccccc1)N1CCC(n2c(=O)[nH]c3ccccc32)CC1 (stereo unspecified) | inactive: 1.35%
O=C1CCN(Cc2ccccc2)CC1 | inactive: -6.94%
COc1cc(C(=O)NCC2(N(C)C)CCCCC2)ccc1OC(F)F | inactive: -5.19%
CCOC(=O)N1CCC(Nc2cccc(C)c2)CC1 | inactive: 1.08%
O=c1[nH]c2ccccc2n1C1CCN(C(c2cccc3ccccc23)c2nnnn2C2CCCC2)CC1 (stereo unspecified) | inactive: -14.5%
O=c1[nH]c2ccccc2n1C1CCN(C(c2ccccc2)c2nnnn2C2CCCCC2)CC1 (stereo unspecified) | inactive: 15.7%
CSc1ccccc1C(=O)NCC1(N2CCCCC2)CCCCC1 | inactive: -10.8%
Cc1cccc(NC2(C#N)CCN(Cc3ccccc3)CC2)c1 | inactive: 5.43%
COc1ccc(C(=O)NCC2(N3CCCCC3)CCCCC2)cc1 | inactive: 2.8%
CCC(c1nnnn1C1CCCC1)N1CCC(n2c(=O)[nH]c3ccccc32)CC1 (stereo unspecified) | inactive: 1.56%
CC(C)(C)OC(=O)N1CCC(N(C(=O)c2ccccc2)c2ccc(F)cc2)CC1 | inactive: -1.95%
O=C(NCC1(N2CCCCC2)CCCCC1)c1ccc(=O)[nH]c1 | inactive: 3.85%
CCCCn1nnnc1C(c1cccs1)N1CCC(n2c(=O)[nH]c3ccccc32)CC1 (stereo unspecified) | inactive: 14.5%
O=C(NCC1(N2CCCCC2)CCCCC1)c1cccs1 | inactive: -2.75%
CCCCn1nnnc1C(CC)N1CCC(n2c(=O)[nH]c3ccccc32)CC1 (stereo unspecified) | inactive: -2.72%
O=c1[nH]c2ccccc2n1C1CCN(C(c2cc3ccccc3o2)c2nnnn2C2CCCCC2)CC1 (stereo unspecified) | inactive: -16.1%
O=C(OC1CN2CCC1CC2)C1c2ccccc2Oc2ccccc21 (stereo unspecified) | inactive: -10.4%
O=C(NCC1(N2CCCCC2)CCCCC1)c1ccc(Cl)s1 | inactive: 0.554%

SMILES | rescue of ATP level
COc1ccc(Cl)cc1C(=O)NCC1(N2CCOCC2)CCCCC1 | inactive: -6.79%
CCOC(=O)N1CCC(Nc2ccc(OC)cc2)CC1 | inactive: 13.6%
CCCCn1nnnc1C(c1ccc(OC)cc1)N1CCC(n2c(=O)[nH]c3ccccc32)CC1 (stereo unspecified) | inactive: 9.59%
O=c1[nH]c2ccccc2n1C1CCN(C(c2ccccc2OC(F)(F)F)c2nnnn2C2CCCCC2)CC1 (stereo unspecified) | inactive: -0.825%
O=C(NCC1(N2CCCCC2)CCCCC1)c1ccc(Cl)nc1 | inactive: -7.79%
Cc1cc(C)cc(N(C(=O)c2ccccc2)C2CCN(C(=O)OC(C)(C)C)CC2)c1 | inactive: 36.9%
O=C(O)C1(Nc2ccccc2)CCN(Cc2ccccc2)CC1 | inactive: -6.36%
CCCOc1ccc(C(=O)NCC2(N(C)C)CCCCC2)cc1 | inactive: -3.62%
O=c1[nH]c2ccccc2n1C1CCN(C(c2cc3ccccc3o2)c2nnnn2C2CCCC2)CC1 (stereo unspecified) | inactive: -43.9%
CCOc1ncccc1C(=O)NCC1(N2CCOCC2)CCCCC1 | inactive: 21.2%
CN1CCC(Nc2ccc(F)c(Cl)c2)CC1 | inactive: -3.84%
CN1CCC(Nc2ccc(Cl)cc2)CC1 | inactive: -4.84%
COc1cccc(C(=O)N(c2cc(C)cc(C)c2)C2CCN(C(=O)OC(C)(C)C)CC2)c1 | inactive: 25.7%
COc1cccc(C(c2nnnn2C2CCCC2)N2CCC(n3c(=O)[nH]c4ccccc43)CC2)c1OC (stereo unspecified) | inactive: 10.4%
COc1cc(OC)cc(C(=O)NCC2(N3CCOCC3)CCCCC2)c1 | inactive: -0.635%
CCC(CO)(C(=O)OC1CN2CCC1CC2)c1ccccc1 (stereo unspecified) | inactive: -11.4%
Cc1ccc(C(=O)NCC2(N3CCCCC3)CCCCC2)o1 | inactive: -2.3%
Fc1ccccc1NC1CCN(Cc2ccccc2)CC1 | inactive: 17.1%
Cc1ccc(NC2(C#N)CCN(Cc3ccccc3)CC2)cc1 | inactive: -2.03%
CC(=O)N(c1ccccc1)C1CCNCC1 | inactive: -1.37%
COc1cccc(C(c2nnnn2C2CCCCC2)N2CCC(n3c(=O)[nH]c4ccccc43)CC2)c1OC (stereo unspecified) | inactive: 5.57%
CCC(c1nnnn1C1CCCCC1)N1CCC(n2c(=O)[nH]c3ccccc32)CC1 (stereo unspecified) | inactive: -0.549%
O=c1[nH]c2ccccc2n1C1CCN(C(c2ccnc3ccccc23)c2nnnn2C2CCCCC2)CC1 (stereo unspecified) | inactive: -17.7%

SMILES | rescue of ATP level
COc1cc(OC)cc(C(=O)NCC2(N3CCCCC3)CCCCC2)c1 | inactive: 14.9%
O=C(NCC1(N2CCCCC2)CCCCC1)c1ccco1 | inactive: -12.6%
Cn1c(=O)[nH]cc(N(CCCl)CCCl)c1=O | inactive: -0.168%
Cc1ccccc1NC1(C#N)CCN(Cc2ccccc2)CC1 | inactive: -0.943%
CC(C)(C)n1nnnc1C(c1ccnc2ccccc12)N1CCC(n2c(=O)[nH]c3ccccc32)CC1 (stereo unspecified) | inactive: -43.7%
COc1ccc(C(c2nnnn2C2CCCCC2)N2CCC(n3c(=O)[nH]c4ccccc43)CC2)cc1 (stereo unspecified) | inactive: 7.48%
N#Cc1ccc(C(=O)NCC2(N3CCCCC3)CCCCC2)cc1 | inactive: 2.73%
CC(C)(C)OC(=O)N1CCC(N(C(=O)c2ccccc2)c2ccc(Cl)cc2)CC1 | inactive: 2.77%
CC(C)(C)n1nnnc1C(c1cccc2ccccc12)N1CCC(n2c(=O)[nH]c3ccccc32)CC1 (stereo unspecified) | inactive: -22.9%
CN(C)C1(CNC(=O)c2cccc(C#N)c2)CCCCC1 | inactive: -9.87%
CCCN1CCC(Nc2cc(OC)cc(OC)c2)CC1 | inactive: -6.21%
O=c1[nH]c2ccccc2n1C1CCN(C(c2ccccc2)c2nnnn2C2CCCC2)CC1 (stereo unspecified) | inactive: 10.3%
O=c1[nH]c2ccccc2n1C1CCN(C(c2cccs2)c2nnnn2C2CCCCC2)CC1 (stereo unspecified) | inactive: 13.6%
O=c1[nH]c2ccccc2n1C1CCN(C(c2ccnc3ccccc23)c2nnnn2C2CCCC2)CC1 (stereo unspecified) | inactive: -26.9%
CCCCn1nnnc1C(c1ccccc1)N1CCC(n2c(=O)[nH]c3ccccc32)CC1 (stereo unspecified) | inactive: 2.71%
COc1cc(C(=O)NCC2(N3CCOCC3)CCCCC2)cc(OC)c1C | inactive: -29.3%
O=C(NCC1(N2CCOCC2)CCCCC1)c1cc(Br)ccc1Cl | inactive: -6.67%
O=c1[nH]c2ccccc2n1C1CCN(C(c2cccs2)c2nnnn2C2CCCC2)CC1 (stereo unspecified) | inactive: -0.134%
CCCCn1nnnc1C(c1cccc(OC)c1OC)N1CCC(n2c(=O)[nH]c3ccccc32)CC1 (stereo unspecified) | inactive: -1.68%
COc1cccc(C(c2nnnn2C(C)(C)C)N2CCC(n3c(=O)[nH]c4ccccc43)CC2)c1OC (stereo unspecified) | inactive: -2.46%
CCOC(=O)N1CCC(Nc2ccc(C)cc2)CC1 | inactive: 12%
N/C(=N\O)c1c(N)no[n+]1[O-] | inactive: 5.35%
